For three compounds, Minimal toxic dose results are on record in patent US20190211024A1 (priority 2016, published 2019).

The test system of the data set is cell culture. The data set can be described thus: Minimal toxic dose in vitro.
In the case of `CS(=O)(=O)N1C=Cn2c(nc(=O)n2[N+](=O)[O-])N1`, the Minimal toxic dose is over 200 µg/mL. Then `C[S+]([O-])N1C=Cn2c(nc(=O)n2[N+](=O)[O-])N1` (stereo not drawn), with over 200 µg/mL. Then `NCCSN1C=CN2C(=N1)N=CN2[N+](=O)[O-].O`, with 200 µg/mL.
